Consider 12 compounds from PubChem BioAssay AID422 (Emory University Molecular Libraries Screening Center, 2006).

The chains behind the UniProt entries cited, without tags or fusion partners.
UniProt P61981, whole entry: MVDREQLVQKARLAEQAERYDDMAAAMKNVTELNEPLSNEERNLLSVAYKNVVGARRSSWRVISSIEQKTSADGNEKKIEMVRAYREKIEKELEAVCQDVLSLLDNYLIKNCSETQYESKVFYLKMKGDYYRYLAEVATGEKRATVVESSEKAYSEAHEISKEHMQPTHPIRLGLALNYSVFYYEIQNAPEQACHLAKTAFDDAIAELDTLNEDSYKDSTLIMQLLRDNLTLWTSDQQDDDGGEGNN

The entries are a selection whose mix differs from that of the whole data set. Activity calls are given as the source filed them. No stated cut-off is given here; in the data, active means inhibition above about 30%; inactive means the rest.

The assay addresses 14-3-3 protein gamma (Homo sapiens) (UniProt P61981). In words: modulators of 14-3-3 gamma protein binding, primary screen, biochemical, fluorescence polarization (AID 422).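 Further: 0% = protein plus tracer without compound and 100% = blank with tracer alone.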 The settings on record: FP, 14-3-3gamma / TMR-pS259-Raf peptide binding; at 40 µM; active compounds read high. Background: Polarisation of emitted light reports the rotation of a fluorescent probe.
`O=C(OC1CN2CCC1CC2)C1c2ccccc2Oc2ccccc21` (configuration not stated): the inhibition is inactive: -15.1%. As to `N#CC1(Nc2ccccc2)CCN(Cc2ccccc2)CC1`, the inhibition is inactive: -7.39%.

As to `O=C1CCN(Cc2ccccc2)CC1`, the inhibition is inactive: -16.9%. As for `COc1ccc(NC2CCN(CCc3ccccc3)CC2)c(OC)c1`, the figure is inactive: 5.55%; as for `O=S1(=O)CC(Cl)C(SC2CS(=O)(=O)CC2Cl)C1` (configuration not stated), inactive: 8.27%; as for `N#CC1(Nc2ccccc2)CCN(CCc2ccccc2)CC1`, inactive: -1.92%. `N/C(=N\O)c1c(N)no[n+]1[O-]`: the inhibition is inactive: -0.21%. For the compound `CC1CN(C)C(C)CC1Nc1ccccc1` (configuration not stated), the inhibition was inactive: -7.64%. In the case of `c1ccc(CCN2CCC(Nc3ccccc3)CC2)cc1`, the inhibition is inactive: -3.99%. As for `Fc1ccccc1NC1CCN(Cc2ccccc2)CC1`, the figure is inactive: 0.48%; as for `CCC(CO)(C(=O)OC1CN2CCC1CC2)c1ccccc1` (configuration not stated), inactive: -7.15%; as for `CCOc1ncccc1C(=O)NCC1(N2CCOCC2)CCCCC1`, inactive: -2.94%.

Usually inhibition stands for the drop in the measured response relative to a control, in per cent.
